Test results taken from patent US5387578A (priority 1990, dated 1995).

Tested on: LoVo-Doxo-resistant (LoVo/DX) cells
Details: 4 hr treatment

`COc1cccc2c1C(=O)c1c(O)c3c(c(O)c1C2=O)C[C@@](O)(C(=O)COC1(OCC(=O)O)CCCCC1)C[C@@H]3O[C@H]1C[C@H](N2CCO[C@H](OC)C2)[C@H](O)[C@H](C)O1` [Compound 3', 14-O-(1-carboxymethyloxy-cyclohexyl)-3'-deamino-3'-[2(S)-methoxy-4-morpholinyl]doxorubicin] was tested, and the R.I. = Resistance Index = (IC50 LoVo/DX)/(IC50 LoVo) (LoVo/DX vs LoVo) was 3 and the “ID50 (IC50, concentration inhibiting by 50% colony growth), LoVo/DX” value (LoVo/DX) was 0.745 µg/mL (≈ 0.931 µM).

Converted amounts (≈) assume the structure as drawn.
